## Permeability data for macrocyclic peptides

Source: CycPeptMPDB (Li et al. 2023), which took these values from Townsend et al. 2020, doi:10.26434/chemrxiv.13335941.v1.

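Conditions beyond the assay type are not listed; see the original paper. Other peptides of the study may be missing here. Entries at the database's floor value (log10 P of -10) are not listed.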

PAMPA measures passive passage through an artificial lipid membrane. Values are log10 P with P in cm/s, so -5 is more permeable than -7.

| structure (SMILES) | PAMPA (log10 cm/s) |
|---|---|
| CC(C)C[C@H]1C(=O)N2CCC[C@H]2C(=O)N(C)[C@@H](CC(C)C)C(=O)N[C@@H](Cc2ccccc2)C(=O)N[C@@H](C)C(=O)N(Cc2ccccc2)CC(=O)N1C | -5.22 |
| CCCN1CC(=O)N[C@H](CC(C)C)C(=O)N[C@H](CC(C)C)C(=O)N2CCC[C@@H]2C(=O)N[C@@H](CC(C)C)C(=O)N[C@@H](Cc2ccccc2)C(=O)N2CCC[C@@H]2C1=O | -6.13 |
| CC(C)C[C@@H]1NC(=O)[C@H](CC(C)C)N(C)C(=O)C[C@H](Cc2ccccc2)NC(=O)[C@H](Cc2ccccc2)NC(=O)[C@@H](CC(C)C)N(C)C(=O)[C@H]2CCCN2C1=O | -5.34 |
| CCCN1CC(=O)N(C)[C@H](CC(C)C)C(=O)N(Cc2ccccc2)CC(=O)N2CCC[C@H]2C(=O)N(C)[C@H](CC(C)C)C(=O)N[C@@H](Cc2ccccc2)C1=O | -5.02 |
| CC(C)C[C@H]1NC(=O)[C@H]2CCCN2C(=O)[C@H](CC(C)C)N(C)C(=O)CN(Cc2ccccc2)C(=O)[C@H](C)N(C)C(=O)[C@H]2CCCN2C(=O)[C@H](Cc2ccccc2)NC1=O | -5.67 |
| CC(C)C[C@@H]1NC(=O)[C@@H]2CCCN2C(=O)[C@H](CC(C)C)NC(=O)[C@@H](CC(C)C)N(C)C(=O)C[C@H](Cc2ccccc2)NC(=O)[C@@H]2CCCN2C(=O)[C@H](Cc2ccccc2)NC1=O | -5.80 |
| CCCN1CC(=O)N[C@H](CC(C)C)C(=O)N(C)[C@H](CC(C)C)C(=O)N2CCC[C@H]2C(=O)N(C)[C@H](CC(C)C)C(=O)N[C@@H](Cc2ccccc2)C(=O)N2CCC[C@H]2C1=O | -5.23 |
| CC(C)C[C@@H]1NC(=O)[C@@H](C)N(C)C(=O)[C@H](Cc2ccccc2)NC(=O)[C@@H](CC(C)C)NC(=O)[C@H]2CCCN2C(=O)[C@@H](CC(C)C)N(C)C1=O | -5.25 |
| CCCN1CC(=O)N(C)[C@H](CC(C)C)C(=O)N[C@H](CC(C)C)C(=O)N2CCC[C@H]2C(=O)N(C)[C@H](CC(C)C)C(=O)N[C@@H](Cc2ccccc2)C1=O | -4.82 |
| CCCN1CC(=O)N(C)[C@H](CC(C)C)C(=O)N(C)[C@H](CC(C)C)C(=O)N2CCC[C@H]2C(=O)N(C)[C@H](CC(C)C)C(=O)N[C@@H](Cc2ccccc2)C(=O)N2CCC[C@H]2C1=O | -5.42 |
| CC(C)C[C@@H]1NC(=O)[C@H](C)NC(=O)[C@H](Cc2ccccc2)NC(=O)[C@@H](CC(C)C)N(C)C(=O)[C@@H]2CCCN2C(=O)[C@@H](CC(C)C)NC1=O | -6.00 |
| CC(C)C[C@@H]1C(=O)N[C@@H](Cc2ccccc2)C(=O)N2CCC[C@@H]2C(=O)N(C)[C@H](C)C(=O)N[C@H](CC(C)C)C(=O)N(C)[C@@H](CC(C)C)C(=O)N2CCC[C@@H]2C(=O)N1C | -5.30 |
| CC(C)C[C@@H]1NC(=O)[C@H]2CCCN2C(=O)CN(Cc2ccccc2)C(=O)[C@@H](CC(C)C)N(C)C(=O)[C@H](C)NC(=O)[C@@H]2CCCN2C(=O)[C@H](Cc2ccccc2)NC1=O | -6.11 |
| CC(C)C[C@@H]1C(=O)N[C@H](CC(C)C)C(=O)N2CCC[C@@H]2C(=O)N(C)[C@@H](CC(C)C)C(=O)N[C@@H](Cc2ccccc2)C(=O)N2CCC[C@@H]2C(=O)N(C)[C@@H](C)C(=O)N1C | -5.52 |
| CC(C)C[C@@H]1NC(=O)[C@@H]2CCCN2C(=O)CN(Cc2ccccc2)C(=O)[C@H](CC(C)C)NC(=O)C[C@H](Cc2ccccc2)NC(=O)[C@H](Cc2ccccc2)NC1=O | -5.78 |
| CC(C)C[C@@H]1NC(=O)[C@@H](CC(C)C)NC(=O)C[C@H](Cc2ccccc2)NC(=O)[C@@H]2CCCN2C(=O)[C@H](Cc2ccccc2)NC(=O)[C@@H](CC(C)C)NC(=O)[C@@H]2CCCN2C1=O | -5.81 |
| CC(C)C[C@@H]1NC(=O)C[C@H](Cc2ccccc2)NC(=O)[C@H](Cc2ccccc2)NC(=O)[C@H](CC(C)C)N(C)C(=O)[C@@H]2CCCN2C(=O)[C@@H](CC(C)C)N(C)C1=O | -5.22 |
| CC(C)C[C@@H]1C(=O)N(C)[C@H](CC(C)C)C(=O)N2CCC[C@@H]2C(=O)N(Cc2ccccc2)CC(=O)N[C@@H](Cc2ccccc2)C(=O)N2CCC[C@@H]2C(=O)N[C@@H](C)C(=O)N1C | -5.87 |
| CC(C)C[C@@H]1NC(=O)[C@H]2CCCN2C(=O)[C@H](CC(C)C)NC(=O)[C@H](CC(C)C)NC(=O)[C@H](C)N(C)C(=O)[C@H](Cc2ccccc2)NC1=O | -6.68 |

The first 3 entries again:

| structure (SMILES) | PAMPA (log10 cm/s) |
|---|---|
| CC(C)C[C@H]1C(=O)N2CCC[C@H]2C(=O)N(C)[C@@H](CC(C)C)C(=O)N[C@@H](Cc2ccccc2)C(=O)N[C@@H](C)C(=O)N(Cc2ccccc2)CC(=O)N1C | -5.22 |
| CCCN1CC(=O)N[C@H](CC(C)C)C(=O)N[C@H](CC(C)C)C(=O)N2CCC[C@@H]2C(=O)N[C@@H](CC(C)C)C(=O)N[C@@H](Cc2ccccc2)C(=O)N2CCC[C@@H]2C1=O | -6.13 |
| CC(C)C[C@@H]1NC(=O)[C@H](CC(C)C)N(C)C(=O)C[C@H](Cc2ccccc2)NC(=O)[C@H](Cc2ccccc2)NC(=O)[C@@H](CC(C)C)N(C)C(=O)[C@H]2CCCN2C1=O | -5.34 |